The entries are a selection whose mix differs from that of the whole data set. Calls of active or inactive are those of the source. No stated cut-off is given here; in the data, active means inhibition above about 12%; inactive means the rest.

This assay is described as follows: reduced growth of AddAB-expressing E. coli cells – absorbance, AddAB inhibitor project, primary screen (AID 435030).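 Further: 0% = vehicle wells of infected cells.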 To be noted: E. coli expressing H. pylori AddAB, at 11.9 µM, hits give high values.
A word on the inhibition: it is the change of the read-out against control, counted positive when it falls. With `CCC(=O)N(c1ccccc1)C1(COC)CCN(CCc2cccs2)CC1`, the inhibition was inactive: -0.85%. In the case of `CCC(=O)N(c1ccccc1)C1(COC)CCN(CCn2nnn(CC)c2=O)CC1` it was inactive: 0.85%.

These data come from PubChem BioAssay AID435030 (The Scripps Research Institute Molecular Screening Center, 2010).
